Measured values as given in ChEMBL document CHEMBL1121560, “Synthesis and biological activity of 5-fluoro-2'-deoxyuridine 5'-phosphorodiamidates” (J Med Chem, 1980).

Experiments:
[1] = Half-life for hydrolysis to 5-fluoro-2'-deoxyuridine-5'-phosphate at 100 degree Centigrade
[2] = system: L5178Y; experiment: In vitro percent inhibition at 10 e-8 M against L5178Y cell growth after 72 hr (replicate flasks inoculated with 10 e5 cells were treated with the nucleotide)
[3] = Half-life for hydrolysis to 5-fluoro-2'-deoxyuridine-5'-phosphate at 65 degree Centigrade

O=c1[nH]c(=O)n([C@H]2C[C@H](O)[C@@H](COP(=O)(n3ccnc3)n3ccnc3)O2)cc1F
T1/2 [1]: 12 h | Inhibition [2]: 16% | T1/2 [3]: 60 h
